# Measurements: PubChem BioAssay AID1159607 (Small Molecule Screening Facility, UW Madison, 2016)
# Several values for one entry are separate records, joined by “and”; a condition that tells them apart may be missing. Identical values can stand only once. This is a selection; strong and weak results do not stand in their true shares. Activity calls are given as the source filed them. No stated cut-off is given here; in the data, active means FP signal below about 40; inactive means the rest.
# System: RMI core complex (RMI1/RMI2) binding to FANCM MM2 peptide, human
# Assay: disruptors of RMI1/RMI2 association with MM2 peptide – biochemical, fluorescence polarization, human, primary screen (AID 1159607)
# Settings: RMI core complex with F-MM2 peptide, at 33 µM, hits give low values
row,Structure (SMILES),FP signal (polarization)
1,Cc1sc2nc3n(c(=O)c2c1C)CC(CI)S3 (stereo not drawn),inactive: 79
2,COc1ccc(NC(=NP(=O)(N2CCOCC2)N2CCOCC2)N2CCOCC2)cc1,inactive: 55
3,O=P(N=c1nc(-c2ccccc2)n(-c2ccccc2)s1)(N1CCOCC1)N1CCOCC1,inactive: 61
4,COC1=NP(OC)(OC)=Nc2c1sc(=NC(=Nc1ccccc1)c1ccc(OC)cc1)n2-c1ccccc1,inactive: 48
5,NC(=O)Nc1ccc([As](=O)(O)O)cc1,inactive: 60
6,CN(C(=O)Cc1ccccc1)[C@@H]1CC[C@]2(CCCO2)C[C@H]1N1CCCC1,inactive: 59
7,O=C(NC(Sc1ccc(Cl)cc1)C(Cl)(Cl)Cl)c1ccccc1Cl (stereo not drawn),inactive: 66
8,CC(=O)NC(SC1=NCCS1)C(Cl)(Cl)Cl (stereo not drawn),inactive: 60
9,CCOP(=O)(Nc1cccc2ccccc12)OCC,inactive: 65
10,CN(C(=O)Cc1ccc(Cl)c(Cl)c1)[C@@H]1CC[C@]2(CCCO2)C[C@H]1N1CCCC1,inactive: 60
11,O=C(OC1CN2CCC1CC2)c1ccc(Cl)cc1 (stereo not drawn),inactive: 57
12,CN(C(=O)Cc1ccc(Cl)c(Cl)c1)[C@@H]1CCCC[C@H]1N1CCCC1,inactive: 57
13,O=c1[nH]c(SCC(Cl)CSc2ccc([N+](=O)[O-])cc2)nc2ccccc12 (stereo not drawn),inactive: 58
14,CN(CCCl)Cc1cc(Cl)c(NC2=NCCN2)c(Cl)c1,inactive: 62
15,O=c1[nH]c(SCC(Cl)CSc2ccccc2)nc2sc3c(c12)CCC3 (stereo not drawn),inactive: 62
16,Cc1cc(C)c(C#N)c(SCC(Br)CBr)n1 (stereo not drawn),active: -21
17,O=C1CCCCC1CNCCBr (stereo not drawn),inactive: 61
18,CCOC(=O)/C(=N\Nc1ccc([N+](=O)[O-])cc1)N1CC1,inactive: 55
19,CCOc1ccc(Nc2c([N+](=O)[O-])cc(C(F)(F)F)cc2[N+](=O)[O-])c([N+](=O)[O-])c1,inactive: 55
20,CN(C(=O)Cc1ccc(Cl)c(Cl)c1)[C@@H]1CCCC[C@@H]1N1CCCC1,inactive: 61
21,Cc1cc(NC(=O)COC(=O)C2(O)c3ccccc3-c3ccccc32)no1,inactive: 62
22,CN(C(=O)Cc1ccc(Cl)c(Cl)c1)[C@H]1CCCC[C@@H]1N1CCCC1,inactive: 52 and inactive: 60
23,O=C(CCNCCCl)c1ccccc1,inactive: 64
